{
  "source": "patent US9034622B2",
  "about": "“Preparation for photodynamic control of microorganisms and use thereof” (priority 2004, dated 2015)",
  "key": {"[1]": {"system": "Actinobacillus actinomycetemcom.", "settings": "for bacterial count After irradiation 2: specimen removed after irradiation after rinsing out dye; for bacterial count After irradiation 1: specimen removed after irradiation with dye solution, 0.1% methylene blue + laser"}, "Porphyromonas gingivalis": {"system": "Porphyromonas gingivalis", "settings": "for bacterial count After irradiation 2: specimen removed after irradiation after rinsing out dye; for bacterial count After irradiation 1: specimen removed after irradiation with dye solution, 0.1% methylene blue + laser"}, "Tannerella fosythensis": {"system": "Tannerella fosythensis", "settings": "for bacterial count After irradiation 2: specimen removed after irradiation after rinsing out dye; for bacterial count After irradiation 1: specimen removed after irradiation with dye solution, 0.1% methylene blue + laser"}, "Treponema denticola": {"system": "Treponema denticola", "settings": "for bacterial count After irradiation 2: specimen removed after irradiation after rinsing out dye; for bacterial count After irradiation 1: specimen removed after irradiation with dye solution, 0.1% methylene blue + laser"}, "[2]": {"system": "Fusobacterium nucleatum ssp.", "settings": "for bacterial count After irradiation 2: specimen removed after irradiation after rinsing out dye; for bacterial count After irradiation 1: specimen removed after irradiation with dye solution, 0.1% methylene blue + laser"}, "Prevotella intermedia": {"system": "Prevotella intermedia", "settings": "prior to treatment <1.0 × 10^2; for bacterial count After irradiation 2: specimen removed after irradiation after rinsing out dye; for bacterial count After irradiation 1: specimen removed after irradiation with dye solution, 0.1% methylene blue + laser"}, "[3]": {"system": "Total (bacterial counts in periodontal pockets)", "settings": "prior to treatment <4.2 × 10^8; for bacterial count After irradiation 2: specimen removed after irradiation after rinsing out dye; for bacterial count After irradiation 1: specimen removed after irradiation with dye solution, 0.1% methylene blue + laser"}, "[4]": {"settings": "coating of 200 μm, 1% methylene blue solution"}, "[5]": {"settings": "Patient 1, prior to treatment <1.0 × 10^2"}, "[6]": {"settings": "Patient 2, prior to treatment <2.7 × 10^3"}, "[7]": {"settings": "Patient 1, prior to treatment <2.5 × 10^2"}, "[8]": {"settings": "Patient 2, prior to treatment <4.6 × 10^4"}, "[9]": {"settings": "Patient 1, prior to treatment <1.7 × 10^5"}, "[10]": {"settings": "Patient 2, prior to treatment <6.3 × 10^5"}, "[11]": {"settings": "Patient 1, prior to treatment <6.6 × 10^4"}, "[12]": {"settings": "Patient 2, prior to treatment <4.7 × 10^5"}, "[13]": {"settings": "Patient 1, prior to treatment <2.6 × 10^5"}, "[14]": {"settings": "Patient 2, prior to treatment <3.1 × 10^5"}},
  "note": "Like-named read-outs stand apart in the source and are kept apart here.",
  "data": [
    {"substance": "methylene blue", "values": [
      {"measurement": "bacterial count After irradiation 2", "setting": "[1]; [5]", "value": "<1.0 × 10^2"},
      {"measurement": "bacterial count After irradiation 1", "setting": "[1]; [5]", "value": "<1.0 × 10^2"},
      {"measurement": "bacterial count After irradiation 2", "setting": "[1]; [6]", "value": "<1.0 × 10^2"},
      {"measurement": "bacterial count After irradiation 1", "setting": "[1]; [6]", "value": "<4.5 × 10^2"},
      {"measurement": "bacterial count After irradiation 2", "setting": "Porphyromonas gingivalis; [7]", "value": "<1.5 × 10^2"},
      {"measurement": "bacterial count After irradiation 1", "setting": "Porphyromonas gingivalis; [7]", "value": "<1.5 × 10^2"},
      {"measurement": "bacterial count After irradiation 2", "setting": "Porphyromonas gingivalis; [8]", "value": "<2.9 × 10^2"},
      {"measurement": "bacterial count After irradiation 1", "setting": "Porphyromonas gingivalis; [8]", "value": "<1.3 × 10^3"},
      {"measurement": "bacterial count After irradiation 2", "setting": "Tannerella fosythensis; [9]", "value": "<2.5 × 10^2"},
      {"measurement": "bacterial count After irradiation 1", "setting": "Tannerella fosythensis; [9]", "value": "<5.7 × 10^3"},
      {"measurement": "bacterial count After irradiation 2", "setting": "Tannerella fosythensis; [10]", "value": "<2.5 × 10^2"},
      {"measurement": "bacterial count After irradiation 1", "setting": "Tannerella fosythensis; [10]", "value": "<5.3 × 10^3"},
      {"measurement": "bacterial count After irradiation 2", "setting": "Treponema denticola; [11]", "value": "<2.5 × 10^2"},
      {"measurement": "bacterial count After irradiation 1", "setting": "Treponema denticola; [11]", "value": "<6.6 × 10^3"},
      {"measurement": "bacterial count After irradiation 2", "setting": "Treponema denticola; [12]", "value": "<2.5 × 10^2"},
      {"measurement": "bacterial count After irradiation 1", "setting": "Treponema denticola; [12]", "value": "<4.1 × 10^3"},
      {"measurement": "bacterial count After irradiation 2", "setting": "[2]; [13]", "value": "<2.8 × 10^2"},
      {"measurement": "bacterial count After irradiation 1", "setting": "[2]; [13]", "value": "<4.4 × 10^3"},
      {"measurement": "bacterial count After irradiation 2", "setting": "[2]; [14]", "value": "<2.5 × 10^2"},
      {"measurement": "bacterial count After irradiation 1", "setting": "[2]; [14]", "value": "<6.2 × 10^3"},
      {"measurement": "bacterial count After irradiation 2", "setting": "Prevotella intermedia; Patient 1", "value": "<1.0 × 10^2"},
      {"measurement": "bacterial count After irradiation 1", "setting": "Prevotella intermedia; Patient 1", "value": "<1.0 × 10^2"},
      {"measurement": "bacterial count After irradiation 2", "setting": "Prevotella intermedia; Patient 2", "value": "<1.0 × 10^2"},
      {"measurement": "bacterial count After irradiation 1", "setting": "Prevotella intermedia; Patient 2", "value": "<1.0 × 10^2"},
      {"measurement": "bacterial count After irradiation 2", "setting": "[3]; Patient 1", "value": "<2.1 × 10^7"},
      {"measurement": "bacterial count After irradiation 1", "setting": "[3]; Patient 1", "value": "<2.3 × 10^8"},
      {"measurement": "bacterial count After irradiation 2", "setting": "[3]; Patient 2", "value": "<1.4 × 10^7"},
      {"measurement": "bacterial count After irradiation 1", "setting": "[3]; Patient 2", "value": "<4.8 × 10^7"},
      {"measurement": "absorption of the light", "setting": "[4]", "value": 95, "unit": "%"}
    ]}
  ]
}
